Assay results taken from article PMC9969397, “Rhenium(V) Complexes as Cysteine-Targeting Coordinate Covalent Warheads” (Journal of Medicinal Chemistry, 2023).

Experiment: Aqueous solubility test by dynamic light scattering
Format: physicochemical
Details: 200 μM, 2% DMSO in phosphate-buffered saline
Procedure: The aqueous solubility of the metal complexes was assessed by dynamic light scattering. The metal complexes were dissolved in DMSO at a concentration of 10 mM. The stock solutions were diluted with phosphate-buffered saline (PBS) buffer to a dilution of 2% DMSO and a compound concentration of 200 μM. The resulting solutions were analyzed by dynamic light scattering (DLS) using a Malvern Instruments Zetasizer Nano apparatus. […] Zinc oxide, which readily precipitates in an aqueous solution, was used as a positive control.

In the case of “ReO(2,2′-thiodiethanethiol)(chloride) [Compound 1]”, the “aqueous solubility (dynamic light scattering)” value is reported as “No aggregation or particle formation was observed”.
